Laboratory results published in patent US20260031189A1, “METHOD AND SYSTEMS FOR PREDICTION OF HLA CLASS II-SPECIFIC EPITOPES AND CHARACTERIZATION OF CD4+ T CELLS” (BioNTech US Inc., priority 2022, published 2026).

Biological target: T1, HLA-DRA*01:01/DRB1*01:01 soluble heterodimer (human)
T1 chain 1: not shown
T1 chain 2: not shown

B1: CMV (peptide)
peptide: LPLKMLNIPSINVH
modifications: not checked
- IC50 (read off the curve): 300 nM
